Patent US20080220004A1

The chains behind the UniProt entries cited, without tags or fusion partners. A line that says so, or that is headed by a name, gives the form on record, which may keep a tag or linker.
UniProt P15692, other isoform, or with tags, fused parts or gaps limits assumed: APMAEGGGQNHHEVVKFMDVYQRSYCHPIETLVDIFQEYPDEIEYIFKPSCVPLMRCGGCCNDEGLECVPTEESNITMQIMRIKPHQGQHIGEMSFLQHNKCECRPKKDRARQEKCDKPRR

Target: VEGF 121 (R&D Biosystems) (UniProt P15692)
Test: cell-based or functional assay

inhibition of VEGF growth response of Baf/Flt cells (70 pM VEGF, 3 days), IC50: 1.4 nM
Substance: anti-VEGF antibody (Avastin™, Genentech)
